#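 Exposure lasted 48 hours, with cells grown in 96-well plates and compounds tested at five concentrations. GI50 marks 50% less growth. TGI denotes the concentration required for complete inhibition of growth.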
# Test system: MDA-MB-468 breast
# Assay: NCI-60 cell line screen, 48 h
smiles,measurement,value
COc1c(C)cc(N(CCCl)CCCl)c2ccccc12,GI50,955 nM
same,TGI,3890 nM

# Reference: PubChem BioAssay (NCI)
